Compound activity deposited in PubChem by ICCB-Longwood Screening Facility, Harvard Medical School.
A selection: hits, their analogues and other compounds. The true share with any hit is near 0.46%.
GIV Gai3 FP – inhibitors of GIV GBA-motif binding to rat Galpha-i3; P08753; Galpha-i3/FITC-GIV peptide fluorescence polarization, 90 min; hits give low values; scaled: aluminum fluoride 0%, vehicle 100%; percent of control (FP), % (no concentration beside the values); 210,000 compounds, 0.42% hits;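 active means replicate mean at 85% of control or lower, very high polarization wells dropped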;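 further: wells of about 15 µL received 100 nL stock; the first replicate is given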
HCMV UL50-53 inh – inhibitors of HCMV UL50-UL53 interaction, biochemical, HTRF; inhibition, % (no concentration beside the values); normalized percent inhibition; 190,000 tested, 0.15% active; HCMV UL50-UL53 nuclear egress complex (human cytomegalovirus); in the data active = inhibition above about 27%, passing the limit was not always enough
GIV Gai FP conf – inhibitors of GIV peptide binding to Galpha-i3, confirmation, biochemical, fluorescence polarization, FITC-GIV peptide, rat Galphai3; shares compounds with GIV Gai3 FP; active compounds read low; fluorescence polarization, mP at 100 µM; 580 tested, 38% active;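 active = inhibition score of 15 or more, meaning 100 minus mean polarization as percent of control over three replicates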;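 also: lower mP means peptide displaced from Galphai3 so more inhibition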
GIV-Gai AS conf – inhibitors of GIV binding to Galpha-i3, confirmation, orthogonal assay for GIV-Galpha-i inhibitor project, biochemical, AlphaScreen, His-GIV, GST-Galphai3; purified proteins, 90 min; active compounds read low; shares compounds with GIV Gai3 FP; 580 tested, 39% active; AlphaScreen counts at 100 µM;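 active = inhibition score at or above a set limit, where the score is 100 minus the three-replicate mean percent of control signal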
Starred values were filed as active, the others as inactive; nt = not tested or not shown.

molecule	GIV Gai3 FP	HCMV UL50-53 inh	GIV Gai FP conf	GIV-Gai AS conf
O=C(c1cc(-c2cccnc2)n(-c2ccc(F)cc2)n1)N1CCC(N2CCCCC2)CC1	103	-7	nt	nt
COc1ccc(CNC(=O)c2ccc(N3CCCC3)c(NC(=O)NCC3CCCO3)c2)cc1 (stereo not given)	111	-3	nt	nt
CC1=NN(c2ccccc2)C(=O)C1C(c1ccccc1)C(C#N)C#N (stereo not given)	106	nt	nt	nt
CC1=NN(c2ccccc2)C(=O)C1C(c1ccc2c(c1)OCO2)C1C(=O)N(c2ccccc2)N=C1C (stereo not given)	72*	nt	63	17537*
CC1CCc2nc(NC(=O)Nc3cccnc3)sc2C1 (stereo not given)	nt	-16	nt	nt
O=C(N/N=C/c1ccco1)c1ccc(CSc2nc3ccccc3s2)cc1	nt	-32	nt	nt
CCCCCCNC(=O)c1c[nH]c2ccc(S(=O)(=O)N(C)c3ccc(Br)cc3)cc2c1=O	112	nt	nt	nt
CN(c1ccc(Br)cc1)S(=O)(=O)c1ccc2[nH]cc(C(=O)NCc3ccccn3)c(=O)c2c1	64*	nt	48*	60749
Clc1ncc(CN2CCOCC2)s1	105	-11	nt	nt
CC(C)c1ccc(C2=CC(=O)C=CC2=O)cc1	107	-10	nt	nt

The closing 4 entries of the section above lead into the next.
molecule	GIV Gai3 FP	HCMV UL50-53 inh	GIV Gai FP conf	GIV-Gai AS conf
CCCCCCNC(=O)c1c[nH]c2ccc(S(=O)(=O)N(C)c3ccc(Br)cc3)cc2c1=O	112	nt	nt	nt
CN(c1ccc(Br)cc1)S(=O)(=O)c1ccc2[nH]cc(C(=O)NCc3ccccn3)c(=O)c2c1	64*	nt	48*	60749
Clc1ncc(CN2CCOCC2)s1	105	-11	nt	nt
CC(C)c1ccc(C2=CC(=O)C=CC2=O)cc1	107	-10	nt	nt
O=C1C=CC(=O)C(c2ccc(C(=O)O)cc2)=C1	70*	-8	55*	2443*
COC(=O)C1=C(C(=O)OC)SC(=C2C(=S)C(C)(C)N(C(=O)c3ccc(F)cc3)c3ccccc32)S1	105	nt	nt	nt
CS(=O)(=O)Cc1cccc(C(=O)NCc2ccco2)c1	nt	-2	nt	nt
COc1ccc(C2c3sc(=O)[nH]c3SC3C(=O)N(c4ccccc4)C(=O)C32)cc1 (stereo not given)	112	-25	nt	nt
O=C1NC(=O)C2C1Sc1[nH]c(=O)sc1C2c1ccco1 (stereo not given)	78*	-86	65	3023*
Cc1ccc(C)c(C2Nc3ccc(C)cc3[C@H]3OCC[C@@H]23)c1 (stereo not given in full)	102	nt	nt	nt
Nc1c(C(=O)N2CCOCC2)sc2nc(-c3cccs3)cc(C(F)(F)F)c12	108	nt	nt	nt
COc1cccc(NC(=O)c2sc3nc4c(c(-c5ccc(C)o5)c3c2N)CCCC4)c1	115	nt	nt	nt
Cc1cc(C(F)(F)F)c2c(N)c(C(=O)Nc3ccc(F)cc3)sc2n1	61*	-18	64	59274
COc1ccc(-c2c3c(nc4sc(C(=O)Nc5cccc(OC)c5)c(N)c24)CC(C)(C)CC3=O)cc1	104	-26	nt	nt

molecule	GIV Gai3 FP	HCMV UL50-53 inh	GIV Gai FP conf	GIV-Gai AS conf
COc1ccc(NC(=O)c2sc3nc(C)cc(C(F)(F)F)c3c2N)cc1	125	nt	nt	nt
COc1ccc(NC(=O)c2sc3nc(-c4cccs4)cc(C(F)(F)F)c3c2N)cc1	75*	nt	68	53981
COc1ccc(NC(=O)c2sc3nc4c(c(-c5ccc(OC)cc5)c3c2N)C(=O)CC(C)(C)C4)cc1	70*	-40	81	32279
COc1cccc(NC(=O)c2sc3nc4c(c(-c5ccco5)c3c2N)CCC4)c1	85*	nt	65	51091
CCOC(=O)c1cnn(-c2ccc(C(=O)N3CCCC3)cc2)c1N	110	nt	nt	nt
COc1ccc(-c2nc3c(s2)CN(C(=O)c2ccccc2Br)CC3)cc1	99	5	nt	nt
Fc1ccc(-c2cc(C(F)(F)F)nc(NC3CCCC3)n2)cc1	102	-22	nt	nt
CCSc1nn2cc(-c3ccccc3Cl)nc2s1	nt	-2	nt	nt
CCc1c(C#N)c(N)nc2sc(C(=O)Nc3ccc(Br)cc3)c(N)c12	nt	-19	nt	nt
Nc1c(C(=O)NC2CC2)sc2nc(-c3cccs3)cc(C(F)(F)F)c12	45*	nt	64	53248

molecule	GIV Gai3 FP	HCMV UL50-53 inh	GIV Gai FP conf	GIV-Gai AS conf
Nc1c(C(=O)N2CCCCC2)sc2nc(-c3cccs3)cc(C(F)(F)F)c12	nt	-1	nt	nt
CCOc1ccc(-c2c(C#N)c(N)nc3sc(C(=O)Nc4ccc(Br)cc4)c(N)c23)cc1	86	-16	64	51717
CNC(=O)CN1C(=O)CCCc2ccccc21	95	-28	nt	nt
CCC1CCCCN1C(=O)CSc1ncccc1C(=O)O (stereo not given)	103	6	nt	nt
CC(C)c1ccc(N2C(=O)c3cc4ccsc4n3CC2(C)C(=O)NC2CCCCC2)cc1 (stereo not given)	111	3	nt	nt
CCCCOc1ccc(C2=N/C(=C\c3ccc(OC)c(OC(C)=O)c3)C(=O)O2)cc1	102	-33	nt	nt
CCCCOc1ccc(C2=N/C(=C\c3ccc(OC(C)=O)c(OC(C)=O)c3)C(=O)O2)cc1	72*	-26	69	51880
O=C1NC(=O)C(=Cc2cc(Br)ccc2OCc2ccc(Cl)cc2)C(=O)N1	78*	50*	62	39620
Cc1ccc(COc2ccc(Br)cc2C=C2C(=O)NC(=S)NC2=O)cc1	100	8	nt	nt
Oc1ccc2ccccc2c1C=Nc1cccn2cc(-c3ccccc3)nc12	-9.9*	nt	9.8*	37990

molecule	GIV Gai3 FP	HCMV UL50-53 inh	GIV Gai FP conf	GIV-Gai AS conf
COc1ccccc1NC(=O)c1c(N=Cc2c(O)ccc3ccccc23)cnn1C	108	nt	nt	nt
COc1ccccc1NC(=O)Nc1ccc2nc3n(c(=O)c2c1)CCC3	107	-6	nt	nt
CCOCCn1c(=NC(=O)c2ccc3c(c2)OCCO3)sc2cc(OCC)ccc21	104	nt	nt	nt
COCCn1c(=NC(=O)c2ccc3c(c2)OCCO3)sc2cc(NC(C)=O)ccc21	80*	nt	80	35824
CC(=O)ON=C1C(=O)N(Cc2cc(Cl)ccc2Cl)c2ccc(Cl)cc21	nt	-15	nt	nt
O=C(Nc1cccc2nsnc12)c1nc2ccccc2nc1N1CCCC1	100	-37	nt	nt
O=C(Nc1cccc2nsnc12)c1nc2ccccc2nc1N1CCOCC1	28*	-26	69	40962
Cc1cccc(NC(=O)N2CCN(c3cc(=O)n4nc(-c5cccc(C)c5)sc4n3)CC2)c1	87	19	81	25822
Cc1ccccc1-c1nn2c(=O)cc(N3CCN(C(=O)Nc4cccc(F)c4)CC3)nc2s1	88	-13	81	28810
Cc1ccccc1-c1nn2c(=O)cc(N3CCN(C(=O)Nc4ccccc4)CC3)nc2s1	97	-11	nt	nt

molecule	GIV Gai3 FP	HCMV UL50-53 inh	GIV Gai FP conf	GIV-Gai AS conf
Cc1cccc(-c2nn3c(=O)cc(N4CCN(C(=O)Nc5ccc6c(c5)OCO6)CC4)nc3s2)c1	102	24	nt	nt
CCOC(=O)N1CCN(C(=S)Nc2ccc(C)c(C)c2)CC1	nt	-14	nt	nt
CCOC(=O)N1CCN(C(=S)Nc2ccc3nsnc3c2)CC1	77*	-76	61*	21787
CCn1c2ccccc2c2nc3cc4ccccc4cc3nc21	44*	-8	39*	55414
CCn1c2ccc(OC)cc2c2nc3ccccc3nc21	96	-60	nt	nt
CCN(CC)c1ccc2c(c1)CCCN2	53*	-16	63	11170*
O=S(=O)(c1ccc2c(c1)CCCN2)N1CCCCC1	nt	-33	nt	nt
O=C1/C(=C/c2cn(-c3ccccc3)nc2-c2cccs2)SC(=S)N1C1CCS(=O)(=O)C1 (stereo not given)	94	-18	nt	nt
O=C1/C(=C\c2cccnc2)SC(=S)N1C1CCS(=O)(=O)C1 (stereo not given)	89	-32	73	36761
Cc1ccc(-n2nc3c(N4CCCC(C(=O)NCCCN5CCCC5=O)C4)nnc(C)c3c2C)cc1 (stereo not given)	117	-40	nt	nt

Look-ups from the results shown.
In GIV Gai3 FP, `O=C1/C(=C\c2cccnc2)SC(=S)N1C1CCS(=O)(=O)C1` (stereo not given) shows 89
In HCMV UL50-53 inh, `CCOC(=O)N1CCN(C(=S)Nc2ccc(C)c(C)c2)CC1` shows -14
